Chains of the proteins cited; added tags and fusions are not shown. Lines headed by an entry give the natural chain unless they say otherwise; changes in a name come on top.
UniProt P30543, whole entry: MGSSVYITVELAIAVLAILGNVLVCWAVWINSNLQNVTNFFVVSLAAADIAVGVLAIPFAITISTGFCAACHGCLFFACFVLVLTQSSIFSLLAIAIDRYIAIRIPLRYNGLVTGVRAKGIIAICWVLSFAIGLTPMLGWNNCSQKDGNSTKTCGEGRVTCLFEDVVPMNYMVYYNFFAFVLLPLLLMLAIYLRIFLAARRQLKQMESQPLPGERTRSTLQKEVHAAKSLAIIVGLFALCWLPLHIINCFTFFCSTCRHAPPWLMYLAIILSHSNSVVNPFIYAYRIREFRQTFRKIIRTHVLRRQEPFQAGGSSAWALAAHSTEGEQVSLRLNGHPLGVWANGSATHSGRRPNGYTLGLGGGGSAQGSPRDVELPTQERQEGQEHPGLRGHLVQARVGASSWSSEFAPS

According to patent publication US20050175535A1 (CV Therapeutics, Inc., priority 2000, published 2005):

Experiments:
[1] = target: T1, human A2B adenosine receptors (Homo sapiens, UniProt P29275); experiment: cAMP accumulation in HEK-293 cells expressing A2B adenosine receptors; assay type: cell-based; conditions: up to 100 μM
T1 construct: expressed in transfected cells
T1 sequence (P29275 1-332): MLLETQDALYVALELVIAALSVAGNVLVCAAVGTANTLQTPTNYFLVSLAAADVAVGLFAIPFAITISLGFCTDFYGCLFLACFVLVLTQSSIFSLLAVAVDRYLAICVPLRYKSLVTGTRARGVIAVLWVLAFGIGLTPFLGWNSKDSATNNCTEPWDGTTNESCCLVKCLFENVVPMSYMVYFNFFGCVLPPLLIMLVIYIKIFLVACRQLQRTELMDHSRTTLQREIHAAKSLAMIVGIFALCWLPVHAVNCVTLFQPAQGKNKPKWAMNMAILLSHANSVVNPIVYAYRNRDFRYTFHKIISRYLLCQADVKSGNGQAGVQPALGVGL
Protocol: FIG. 4. […] Cyclic AMP levels were determined as described under “Methods”. Values represent mean±SEM of triplicate samples from three experiments.
HEK-293 cells stabily expressing recombinant human A2B adenosine receptors (HEK-hA2B adenosine receptors) were grown in DMEM supplemented with 10% fetal bovine serum and 0.5 mg/mL G-418.
Briefly, PC12 cells were rinsed three times with Hanks' balanced saline solution (HBSS), detached using a cell lifter, and pelleted by centrifugation at 500 g for 5 minutes. Aliquots of the cell suspension (0.1 to 0.2 mg protein) were placed in microfuge tubes with 250 μL of HBSS containing rolipram (50 μmol/L) to inhibit phosphodiesterases that degrade cAMP_and warmed to 37° C. […]
The cAMP content of the supernatant was determined by modification of a radioimmunoassay method described by Harper and Brooker (1975. J. Cyclic nucleotide Res 1:207). […] Antibody-bound radioactivity adsorbed to hydroxyapatite was collected onto glass fiber filters by vacuum filtration using a Brandel cell harvester. Radioactivity retained by the filter was counted in a gamma counter. Nonspecific binding of [^125I]ScAMP-TME was defined as radioactivity bound in the presence of 3 μmol/L unlabeled cAMP and was subtracted from total binding. The amount of cAMP present in samples was calculated based on a standard curve using known amounts of cAMP.

[2] = target: A2A adenosine receptors (PC12 cells) (Rattus norvegicus, UniProt P30543); experiment: Rate of decline of agonist-stimulated cAMP in PC12 cells after A2A antagonist SCH58261; conditions: agonist 1 μM, after addition of SCH58261 (20 μM)
A2A adenosine receptors = A2A adenosine receptors (Rattus norvegicus, UniProt P30543); experiment: Competitive radioligand binding, [3H]ZM241385, PC12 cell membranes

t0.5, rate of decline of cAMP accumulated [2] [min]	pKi ± SEM, PC12 cells (A2A) (A2A adenosine receptors)	Ki (A2A adenosine receptors; read-out: Ki, PC12 cells (A2A)) [µM]	Structure (SMILES)	effect on cellular cAMP content [1]
			CCNC(=O)[C@H]1O[C@@H](n2cnc3c(N)ncnc32)[C@H](O)[C@@H]1O [NECA, N-ethylcarboxamido-adenosine, reference compound]	concentration-dependent increase of cellular cAMP content
1.6 ± 0.2	5.48 ± 0.10	3.48	C[C@H](Cc1ccccc1)Nc1ncnc2c1ncn2[C@@H]1O[C@H](CO)[C@@H](O)[C@H]1O [R-PIA, Phenylisopropyladenosine, reference compound]	
